Measured properties of organic chemicals

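The OPERA project collected these measurements from public sources as training and test data for property models. A listed value is a point estimate from one report or more. Method, purity and exact conditions of the single measurements are not given. The measured form (salt, isomer or mixture) is not always the one drawn. Unmarked limits or estimates from the upstream databases cannot be ruled out.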

Melting points are in °C. The octanol-water partition coefficient is given as log10; larger values mean a more lipophilic compound. Solubility in water is on a log10 molar scale (set defined at 25 °C). Vapor pressures (log10 mmHg) refer to near room temperature, 15 to 30 °C; higher is more volatile. The Henry's law constant is on a log10 scale in atm·m3/mol (set defined at 25 °C); higher favours air over water. The unbound fraction in human plasma runs from 0 (all bound) to 1 (all free). Clint is human hepatic intrinsic clearance in µL/min per million cells; 0 means that no clearance was seen.

Listed for CCCCCCCCP(=O)(O)O [Octylphosphonic acid]: log Kow -0.45 and log solubility -3.015 (log10 mol/L).
Listed for CCC(C)(C)c1ccc(O)c(C(C)(C)CC)c1 [2,4-Di-tert-pentylphenol]: log solubility -4.893 (log10 mol/L) and log VP -1.426 (log10 mmHg).
Listed for C=CC(C#N)OC(C)=O (configuration not stated) [1-Cyanoallyl acetate]: log Kow 0.12 and log VP -0.709 (log10 mmHg).
Listed for CCC(=O)c1ccc(C)cc1 [p-Methylpropiophenone]: log Kow 2.7 and log solubility -2.434 (log10 mol/L).
Listed for C=CC(=O)OCCN=C=O [2-Propenoic acid, 2-isocyanatoethyl ester]: log Kow 1.6 and log VP 0.547 (log10 mmHg).
Listed for C[C@]12CC[C@@H]3C4=C(CC[C@H]3[C@@H]1CCC2=O)CC(=O)CC4 [Estr-5(10)-ene-3,17-dione]: log Kow 2.8 and log solubility -4.064 (log10 mol/L).
Listed for CCCCCOC(=O)Cc1ccccc1 [Benzeneacetic acid, pentyl ester]: MP -8.09 °C and log solubility -2.594 (log10 mol/L).
Listed for CCCOC/C(=Nc1ccc(Cl)cc1C(F)(F)F)/[n]1c[n]cc1: plasma fu 0.005445 and hepatic Clint 19.6 µL/min/10^6 cells.
Listed for O=c1[nH]c2ccccc2c(=O)o1 [2H-3,1-Benzoxazine-2,4(1H)-dione]: log Kow 1.26 and log solubility -2.735 (log10 mol/L) and log VP -8.138 (log10 mmHg).
Listed for CCC(C)(C)C(=O)OC1=C(c2ccc(Cl)cc2Cl)C(=O)OC12CCCCC2 [Spirodiclofen]: log solubility -6.921 (log10 mol/L) and Henry's law constant -6.705 (log10 atm·m3/mol) and hepatic Clint 44.6 µL/min/10^6 cells.
Listed for CCOP(=S)(NC(C)C)Oc1ccccc1C(=O)OC(C)C (configuration not stated) [Isofenphos]: plasma fu 0.0105 and hepatic Clint 158 µL/min/10^6 cells.
Listed for CCNC1=Nc2ccc(Cl)cc2C(C)(c2ccccc2)O1 (configuration not stated) [Etifoxine]: log Kow 4.09 and log solubility -4.779 (log10 mol/L).
Listed for CC(C)CCC(C)Nc1ccc(NC(C)CCC(C)C)cc1 (configuration not stated) [N,N'-Bis(1,4-dimethylpentyl)-4-phenylenediamine]: MP -36.11 °C and log Kow 5.34 and log VP -5.949 (log10 mmHg).
Listed for COc1cc(OC)nc(Oc2cccc(Oc3nc(OC)cc(OC)n3)c2C(=O)[O-])n1.[Na+] [Bispyribac-sodium]: log solubility -0.848 (log10 mol/L) and log VP -10.38 (log10 mmHg) and plasma fu 0.0106.
Listed for C#C[C@]1(O)CC[C@H]2[C@H]3[C@H](CC[C@@]21C)[C@H]1CCC(=O)C=C1C[C@H]3C [delta4-Tibolone]: log Kow 3.15 and log VP -9.186 (log10 mmHg).
Listed for Cc1c([N+](=O)[O-])cc2c(c1[N+](=O)[O-])C(C)(C)CC2(C)C [1,1,3,3,5-Pentamethyl-4,6-dinitro-2,3-dihydro-1H-indene]: log Kow 4.4 and log solubility -6.782 (log10 mol/L).
Listed for C=CCC1(C(C)CCC)C(=O)NC(=O)NC1=O (configuration not stated) [Secobarbital]: log solubility -2.276 (log10 mol/L) and plasma fu 0.5.
Listed for C=CCN1C[C@H](C(=O)N(CCCN(C)C)C(=O)NCC)C[C@@H]2c3cccc4[nH]cc(c34)C[C@H]21 [Cabergoline]: log Kow 2.6 and log solubility -3.849 (log10 mol/L).

Extract of 3 entries:

For C=CCC1(C(C)CCC)C(=O)NC(=O)NC1=O (configuration not stated) [Secobarbital] the data give log solubility -2.276 (log10 mol/L) and plasma fu 0.5.
For CCNC1=Nc2ccc(Cl)cc2C(C)(c2ccccc2)O1 (configuration not stated) [Etifoxine] the data give log Kow 4.09 and log solubility -4.779 (log10 mol/L).
For C=CC(=O)OCCN=C=O [2-Propenoic acid, 2-isocyanatoethyl ester] the data give log Kow 1.6 and log VP 0.547 (log10 mmHg).

Data: OPERA 2.9 data sets, kmansouri/OPERA on GitHub.